Measurements taken from patent US20150005230A1, “CYCLODEXTRIN-BASED POLYMERS FOR THERAPEUTIC DELIVERY” (priority 2012, published 2015).

Test system: acetyl cholinesterase
Conditions: in the presence of acetyl cholinesterase

Substance	CPT release rate compared with PBS
Poly(CDDCys-PA-PEG)-Gly-CPT [HG6]	on the same order of magnitude as in PBS
Poly(CDDCys-PA-PEG)-GlyGlyGly-CPT [HGGG6]	on the same order of magnitude as in PBS
